Experimental data: PubChem BioAssay AID1671188 (National Center for Advancing Translational Sciences (NCATS), 2021)
This is a selection; strong and weak results do not stand in their true shares. Inconclusive results are not listed. A call without a number means that no potency is given here. Calls of active or inactive are those of the source. Calls come from the whole dose curve; as a rule, active = well fitted inhibition curve with a large enough effect; inconclusive = small, poorly fitted or top-dose-only effect; inactive = flat fitted curve, though single readings scatter.

Chains of the proteins cited; added tags and fusions are not shown.
UniProt Q8TD30, whole entry: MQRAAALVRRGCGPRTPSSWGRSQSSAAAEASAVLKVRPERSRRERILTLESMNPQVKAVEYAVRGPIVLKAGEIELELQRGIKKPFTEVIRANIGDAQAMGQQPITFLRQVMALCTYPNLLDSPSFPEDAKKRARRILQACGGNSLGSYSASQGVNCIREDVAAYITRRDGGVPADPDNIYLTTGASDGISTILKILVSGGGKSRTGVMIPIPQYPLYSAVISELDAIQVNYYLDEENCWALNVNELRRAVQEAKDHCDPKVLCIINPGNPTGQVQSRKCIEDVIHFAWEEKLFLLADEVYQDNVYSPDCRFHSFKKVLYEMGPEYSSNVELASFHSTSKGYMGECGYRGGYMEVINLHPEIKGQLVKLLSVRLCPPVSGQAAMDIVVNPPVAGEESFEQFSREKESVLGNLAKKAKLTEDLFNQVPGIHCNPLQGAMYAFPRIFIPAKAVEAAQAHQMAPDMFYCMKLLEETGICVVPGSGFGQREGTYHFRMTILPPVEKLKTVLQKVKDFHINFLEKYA

Each compound was assayed against Alanine aminotransferase 2 (Homo sapiens) (UniProt Q8TD30) (assay: Primary qHTS assay for inhibitors of Glutamate pyruvate transaminase 2 (GPT2)). Settings: Recombinant GPT2, coupled pyruvate oxidase/HRP Amplex Red fluorescence; series mostly up to 57.7 µM.
Experimental: Assay Provider: Zhenghe John Wang Ph.D.
Case Western Reserve University, Cleveland OH
Glutamate pyruvate transaminase 2 (GPT2) catalyzes the reversible transamination of glutamate and pyruvate to provide a-ketoglutarate and alanine. We have optimized an assay for GPT2 enzymatic activity that couples pyruvate formation to detection of fluorescence using an established pyruvate oxidase/horseradish peroxidase / Amplex Red system.
Screening conditions were 250uM a-KG, 2mM L-alanine, and 10ng/uL GPT2 in […] of solution; 10uL of Amplex reaction mix (outlined below) were added so that final concentrations of Amplex reagents in 50uL were 0.2mM ThPP, 0.2U/mL PO and HRP, and 50uM Amplex.
NOTE: The volume of GPT2 in the system depends on the activity of it. The activity is different every batch. You need to test the activity before the assay. For full plate assay with automation, plate 20uL of GPT2 buffer to pin into, then add 10uL of GPT2 dilution followed immediately by 10uL of substrate dilution. 2 Columns of the plate were devoted to GPT2 buffer ([…] PH7.5, 0.0001% Tween) + 50uM AOA (known GPT2 inhibitor) to serve as a positive control. Complete the assay as normal. Amplex-red buffer: […] PH7.5, 1 mM EDTA, 1 mM MgCl2.
1. Combine a-KG and L-alanine at desired concentrations and incubate for at least 10 minutes at 37C. Stocks of L-alanine and a-KG are diluted in distilled water. However, the stocks were diluted in GPT2 buffer for the assay.
2. Prepare GPT2 dilution at the desired concentration in GPT2 buffer.
3. Plate 40uL of GPT2 dilution with 40uL of substrate dilution and let incubate for 30 minutes at room temperature.
4. Add 20uL of Amplex reaction mix prepared as follows: 1.5uL 200U/mL Horseradish Peroxidase, 200mM Thiamine Pyrophosphate, 200U/mL Pyruvate Oxidase; 7.5uL 10mM Amplex Red; 288uL Amplex Buffer.
5. Incubate for 30 minutes at room temperature in the dark, then image using AM_Amplex_Fluorescence on plate reader nearest the window.
Note: nearly all actives have a fitted effect of over 60% in size.
Potency is the fitted concentration of half-maximal effect.

Row | SMILES | Potency
1 | CCOC(=O)C(=O)CBr | active: 4.85 µM
2 | CCOC(=O)N1CCC(=O)CC1 | inactive
3 | CC(=O)N1CCc2ccc(N(C(=O)/C=C/c3cccc(C#N)c3)C3CCN(CCC4CCCC4)CC3)cc21 | inactive
4 | CCC(=O)N(c1ccccc1)C1CCNCC1 | inactive
